Reference: US20100055065A1, “AGENT FOR INHIBITING PRODUCTION OF HEPATITIS C VIRUS AND ITS USE” (MIYAZAKI PREFECTURAL INDUSTRIAL SUPPORT FOUNDATION, priority 2008, published 2010)

Tested on: HCV replicon cells (human hepatoma Huh-7)
Assay: Cytotoxicity test (Cell Counting Kit-8)
Format: cell-based
Conditions: Table 1
Description: The cytotoxicity of the samples was measured by Cell Counting Kit-8 (CCK-8; Dojindo Molecular Technologies) according to the manufacture's instructions. Briefly, 10 μl/a well of CCK-8 reagent were added to the HCV replicon cells cultured in a 96-well plate and then incubated at 37° C. for 60 min. The absorbance of each well was measured at 450 nm with a reference wavelength at 650 nm using an Emax Precision microplate reader (Molecular Devices Inc.). Cell viability was calculated as relative index of control cells and effects of samples and was expressed as the concentration of samples required for 50% cytotoxicity of the cells (CC50).

**Q.** How did the “Cytotoxicity CC50” value turn out when Catechin was run?
**A.** 100.4 µg/mL
